# Test results as given in PubChem BioAssay AID463111 (Johns Hopkins Ion Channel Center, 2010).
# The list shows a part of the results, in another mix than the full data. Some salts and complexes are drawn in separate pieces, as the source files them; their charges need not balance. Activity calls are given as the source filed them.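 The calls were made as follows: active = B-score of the integrated calcium signal more than 4 SD below the library mean, with starting fluorescence not abnormally high; inactive = the rest.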
# Assay: RGS4 potentiators or activators, primary screen, cell-based, HEK293 M3R inducible RGS4, calcium flux (AID 463111);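 as to B-score: negative B-score means reduced calcium response which marks RGS4 activation or potentiation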
# Details: HEK293 M3R/inducible RGS4, carbachol calcium flux Fluo4, at 10 µM; active compounds read low
# Procedure, shortened: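 Material: Inducible-RGS4 HEK293 cells carrying M3 receptor; also added: carbachol at ECmax as muscarinic agonist stimulus; incubation: compound preincubation 20 min at room temperature before agonist; signal: Fluo4-AM (2 µM) calcium-flux fluorescence, kinetic read; measure: integrated calcium ratio converted to B score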
SMILES,outcome,B-score
CP(=O)(Nc1ccc(Cl)cc1Cl)Oc1ccccc1 (centres undefined),inactive,
CP(=O)(OCCOc1ccccc1)OCCOc1ccccc1,inactive,
Nc1cccc2ccc([As](=O)(O)O)cc12,inactive,
CCN(N=Nc1nonc1N)c1nonc1N,inactive,
O=[N+]([O-])c1cc([N+](=O)[O-])c(CCN2CCOCC2)c([N+](=O)[O-])c1,inactive,
Cc1nc2ccc3ccccc3c2o1.O=[N+]([O-])c1cc([N+](=O)[O-])c(O)c([N+](=O)[O-])c1,inactive,
COc1ccc(OP(C)(=O)Nc2ccccc2Br)cc1 (centres undefined),inactive,
COc1ccccc1OP(C)(=O)Nc1ccc(C)c(C)c1 (centres undefined),inactive,
Cc1ccc(NP(=O)(Oc2ccccc2F)Oc2ccccc2F)nc1,inactive,
CN(C(=O)Cc1ccc(Cl)c(Cl)c1)[C@H]1CCCC[C@@H]1N1CCCC1,inactive,
Cc1cc(SC(NC(=O)c2ccc(F)cc2)C(Cl)(Cl)Cl)ncn1 (centres undefined),inactive,
CCOP(=O)(Nc1ccccc1)OCC,inactive,
O=P(Nc1nc2ccc(Cl)cc2s1)(c1ccccc1)c1ccccc1,inactive,
Cc1cc(C)cc(OP(C)(=O)Nc2cccc(C(F)(F)F)c2)c1 (centres undefined),inactive,
CC(=O)Nc1ccc([As](=O)(O)O)cc1,inactive,
O=C(O)c1ccccc1[As](=O)(O)O,inactive,
CCc1ccc(OP(C)(=O)O)cc1,inactive,
COc1ccccc1OP(C)(=O)Nc1ccc(C)cc1C (centres undefined),inactive,
CP(=O)(Nc1ccccn1)Oc1ccccc1 (centres undefined),inactive,
O=C(NC(Sc1ccncn1)C(Cl)(Cl)Cl)c1ccccc1 (centres undefined),inactive,
Oc1ccccc1CNc1ccccn1,inactive,
Cc1c(NP(C)(=O)Oc2ccc(C(C)C)cc2)c(=O)n(-c2ccccc2)n1C (centres undefined),inactive,
Nc1cc(N)c2nonc2c1[N+](=O)[O-],inactive,

SMILES,outcome,B-score
CC(C)CC(=O)NC(Sc1ccc(Cl)cc1)C(Cl)(Cl)Cl (centres undefined),inactive,
O=[N+]([O-])c1cc([N+](=O)[O-])c(Nc2ccccn2)c([N+](=O)[O-])c1,inactive,
Clc1ccc(Cl)c(NC2=NCC(CBr)S2)c1 (centres undefined),inactive,
CN(C)CCOC(=O)C(O)(c1ccccc1)C1CCCC1 (centres undefined),inactive,
Cc1ccc(OP(=O)(Nc2nccs2)Oc2ccc(C)cc2)cc1,inactive,
COc1ccccc1OP(=O)(Nc1ccc(C)cn1)Oc1ccccc1OC,inactive,
COc1ccc(OP(C)(=O)Nc2ccccn2)cc1 (centres undefined),inactive,
Cc1ccc(N/C(=N/P(=O)(N2CCOCC2)N2CCOCC2)N2CCOCC2)cc1,inactive,
COc1ccccc1OP(C)(=O)Nc1ccc(Br)cc1 (centres undefined),inactive,
NC(=O)c1cc([N+](=O)[O-])cc([N+](=O)[O-])c1N,inactive,
CC1CCN(C(=O)Oc2c(Cl)cc(Cl)c3cccnc23)CC1,inactive,
CN(C)C(=O)OCCc1n(C)cc[n+]1C,inactive,
CN(C)C(=O)c1c([N+](=O)[O-])cc([N+](=O)[O-])cc1[N+](=O)[O-],inactive,
CC(C)=N/N=C(\N)N[N+](=O)[O-],inactive,
CP(=O)(Nc1ccc(Cl)cc1)Oc1ccc(F)cc1 (centres undefined),inactive,
CCN(/C(=N/P(=O)(N1CCOCC1)N1CCOCC1)N1CCOCC1)c1ccc(OC)cc1,inactive,
C[N+]1=C2C=CC=CC=C2SC12C([N+](=O)[O-])=CC([N+](=O)[O-])=C[C-]2[N+](=O)[O-] (centres undefined),inactive,
COc1ccccc1OP(C)(=O)Nc1ccccc1Br (centres undefined),inactive,
CC(C)(C)c1ccc(OP(C)(=O)O)cc1,inactive,
Nc1ccc([As](=O)(O)c2ccc(N)cc2)cc1,inactive,
CCc1ccc(OP(C)(=O)Nc2cccnc2)cc1 (centres undefined),inactive,
CCc1nc2c(n1)c1c(non1O)c1c2no[n+]1[O-],inactive,
O=[N+]([O-])c1cc([N+](=O)[O-])c(CCNc2ccccc2)c([N+](=O)[O-])c1,inactive,

SMILES,outcome,B-score
Cc1ccc(NP(=O)(Oc2ccccc2)Oc2ccccc2)nc1,inactive,
CP(=O)(Oc1ccccc1)N1CCOC1=O (centres undefined),inactive,
O=C(OCCCN1CCCC1)C(O)(c1ccccc1)C1CCCCC1 (centres undefined),,active: -9.29
O=[N+]([O-])c1cccc2n[nH]nc12,inactive,
CC(=O)N1C2C3N(C(C)=O)C1C1N(C(C)=O)C(C(N1C(C)=O)N3C(C)=O)N2C(C)=O,inactive,
COc1ccccc1OP(C)(=O)Nc1c(C)n(C)n(-c2ccccc2)c1=O (centres undefined),inactive,
COc1ccc(C2=NCC(CBr)S2)cc1 (centres undefined),inactive,
COc1ccc(OP(C)(=O)Nc2ccc(Br)cc2)cc1 (centres undefined),inactive,
CCN(CC)CC(O)COC(=O)C(O)(c1ccccc1)C1CCCCC1 (centres undefined),inactive,
O=C(O)CNc1ccc([As](=O)(O)O)cc1,inactive,
O=[N+]([O-])c1cccc(NC2=NCC(CBr)S2)c1 (centres undefined),inactive,
O=[N+]([O-])c1ncn(CCn2ncnc2[N+](=O)[O-])n1,inactive,
CC(C)(C)C(=O)NC(Sc1ccncn1)C(Cl)(Cl)Cl (centres undefined),inactive,
CP(=O)(OC12CC3CC(CC(C3)C1)C2)OC12CC3CC(CC(C3)C1)C2,inactive,
O=C(Nc1cc([As](=O)(O)O)ccc1O)c1ccccc1,inactive,
CCOC(=O)c1ccc(NP(C)(=O)Oc2ccc(Cl)cc2)cc1 (centres undefined),inactive,
Nc1ccc2c(ccc3cccnc32)n1.O=[N+]([O-])c1cc([N+](=O)[O-])c(O)c([N+](=O)[O-])c1,inactive,
C(Cc1nn[nH]n1)Cc1nn[nH]n1,inactive,
Nc1ccc([As](=O)(O)c2ccc([N+](=O)[O-])cc2)cc1,inactive,
O=[N+]([O-])c1cc([N+](=O)[O-])c(NCC2CCS(=O)(=O)C2)c([N+](=O)[O-])c1 (centres undefined),inactive,
Cc1cc(-c2cccc3ccccc23)c(C)cn1.O=[N+]([O-])c1cc([N+](=O)[O-])c(O)c([N+](=O)[O-])c1,inactive,
O=[As](O)(c1ccccc1)c1ccc(O)cc1,inactive,
O=[N+]([O-])c1ccc(O)c(/C=N/Nc2ccc([N+](=O)[O-])cc2[N+](=O)[O-])c1,inactive,

SMILES,outcome,B-score
O=[N+]([O-])c1ncn(CCn2cnc([N+](=O)[O-])n2)n1,inactive,
O=[N+]([O-])c1ccc(OP2(=O)COCCO2)cc1 (centres undefined),inactive,
CC(=O)NC(SC(=S)N(C)C)C(Cl)(Cl)Cl (centres undefined),inactive,
COc1ccc(NP(C)(=O)Oc2ccccc2OC)cc1 (centres undefined),inactive,
C[C@H]1OP(=O)(Oc2ccccc2)[C@H](O)[C@H](O)[C@H]1N=[N+]=[N-] (some centres undefined),inactive,
CN(C)CCOC(=O)C(O)(c1ccccc1)C1CCCCC1 (centres undefined),,active: -9.38
O=P(Nc1nc2ccccc2s1)(c1ccccc1)c1ccccc1,inactive,
O=P(Nc1ccccn1)(c1ccc(Br)cc1)c1ccc(Br)cc1,inactive,
CN(C)C1(CNC(=O)c2ccc(Cl)c(S(N)(=O)=O)c2)CCCCC1,inactive,
COc1ccc(OP(C)(=O)Nc2cccc(Br)c2)cc1 (centres undefined),inactive,
CP(=O)(Nc1ccc2c(c1)OCCO2)Oc1ccccc1 (centres undefined),inactive,
c1nnnn1CCn1cnnn1,inactive,
CCOP(C)(=S)SCC(=O)NC(C)(CC)C(=O)O (centres undefined),inactive,
CC(C)C(=O)NC(Sc1ccccc1)C(Cl)(Cl)Cl (centres undefined),inactive,
O=P(Nc1nccs1)(c1ccccc1)c1ccccc1,inactive,
CP(=O)(Nc1ccc(SC(F)(F)F)cc1)Oc1ccc(F)cc1 (centres undefined),inactive,
CC(=O)Nc1ccc(Oc2c([N+](=O)[O-])cc([N+](=O)[O-])cc2[N+](=O)[O-])cc1,inactive,
CC(=O)Nc1ccc([As](=O)(O)O)c(O)c1,inactive,
COc1ccc2c(c1O)-c1c(O)c(OC)cc3c1[C@H](C2)[N+](C)(C)CC3.O=[N+]([O-])c1cc([N+](=O)[O-])c([O-])c([N+](=O)[O-])c1[O-],inactive,
C[C@H]1OP(=O)(Oc2ccccc2)C[C@@H]2O[C@@H]21 (some centres undefined),inactive,
C[C@@H]1C=CCP(=O)(Oc2ccccc2)O1 (some centres undefined),inactive,
O=C(OCCN1CCN(CCOCc2ccccc2)CC1)C(O)(c1ccccc1)c1ccccc1,inactive,
O=C(OC1CN2CCC1CC2)c1ccc([N+](=O)[O-])cc1 (centres undefined),inactive,

SMILES,outcome,B-score
CC(=O)c1ccc(N2CC2c2ccncc2)cc1 (centres undefined),inactive,
CC(C)c1ccc(OP(C)(=O)Nc2ccc(SC(F)(F)F)cc2)cc1 (centres undefined),inactive,
CC(C)(C)C(=O)NC(Sc1ccccc1)C(Cl)(Cl)Cl (centres undefined),inactive,
CP(=O)(Nc1ccccc1F)Oc1ccccc1 (centres undefined),inactive,
CCOc1ccc(C2=NCC(CBr)S2)cc1 (centres undefined),inactive,
O=P1(Nc2nc3ccc(Cl)cc3s2)COc2ccccc2O1 (centres undefined),inactive,
O=[N+]([O-])c1cc([N+](=O)[O-])c(OC2CCCCC2O)c([N+](=O)[O-])c1 (centres undefined),inactive,
CCCCCOc1ccc(NP(C)(=O)Oc2ccc(Cl)cc2Cl)cc1 (centres undefined),inactive,
CN(C)C(=O)Oc1noc2ccccc12,inactive,
CP(=O)(Nc1ccccc1)Oc1ccc(F)cc1 (centres undefined),inactive,
CCN(CC)CCCOC(=O)C(O)(c1ccccc1)C1CCCCC1 (centres undefined),,active: -7.6
CCC(=O)N1C2C3N(C(=O)CC)C1C1N(C(=O)CC)C(C(N1C(=O)CC)N3C(=O)CC)N2C(=O)CC,inactive,
O=C(OC1CN2CCC1CC2)c1ccccc1 (centres undefined),inactive,
Cc1ccc(OP(=O)(Nc2ccccn2)Oc2ccc(C)cc2)cc1,inactive,
CC(=O)NC(SC(=S)N(CC(C)C)CC(C)C)C(Cl)(Cl)Cl (centres undefined),inactive,
COC(=O)c1cc2c(s1)N=C(c1ccccc1)N(C)P2(=O)N1CCOCC1 (centres undefined),inactive,
COc1ccc(OP(C)(=O)Nc2ccc(SC(F)(F)F)cc2)cc1 (centres undefined),inactive,
CCOC(=O)c1ccc(NP(C)(=O)Oc2ccc(F)cc2)cc1 (centres undefined),inactive,
CCOC(=O)NC(Sc1ccccc1)C(Cl)(Cl)Cl (centres undefined),inactive,
Cc1ccc(NP(=O)(Oc2cccc(C)c2)Oc2cccc(C)c2)nc1,inactive,
c1ccc(-c2nn[nH]n2)c(-c2nn[nH]n2)c1,inactive,
CCNC(=S)/N=C(\N)N[N+](=O)[O-],inactive,
